Results as given in ChEMBL document CHEMBL3875167, “Design and synthesis of chiral 2H-chromene-N-imidazolo-amino acid conjugates as aldose reductase inhibitors” (Eur J Med Chem, 2016).
pIC50: −log10 of the molar value.

Target: Aldo-keto reductase family 1 member B1 (Rattus norvegicus, UniProt P07943)
Assay: Inhibition of rat lenses ALR2 using DL-glyceraldehyde as substrate preincubated for 10 mins followed by substrate addition measured for 4 mins
Method in brief: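 ALR2 assay run at 30 °C in 1 mL containing 0.10 mM NADPH, 0.1 M sodium phosphate pH 6.2 and enzyme extract. The mixture was preincubated 10 min, then 10 mM DL-glyceraldehyde was added and NADPH oxidation followed for 4 min. Compounds were in DMSO diluted with water. Substrate-free blank rates were subtracted. Three replicates per concentration, with ≥3 concentrations giving 20–80% inhibition.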

Structure (SMILES): O=C1NC(=O)[C@@]2(CCOc3ccc(F)cc32)N1 [SORBINIL]
- pIC50: 6.37
